Results reported in US8841291B2, “Selective hydroxamic acid based MMP-12 and MMP-13 inhibitors” (Novartis AG, priority 2008, dated 2014).

Target: T1, Gelatinase (MMP-2) (Homo sapiens, UniProt P08253)
T1 sequence (P08253 110-660): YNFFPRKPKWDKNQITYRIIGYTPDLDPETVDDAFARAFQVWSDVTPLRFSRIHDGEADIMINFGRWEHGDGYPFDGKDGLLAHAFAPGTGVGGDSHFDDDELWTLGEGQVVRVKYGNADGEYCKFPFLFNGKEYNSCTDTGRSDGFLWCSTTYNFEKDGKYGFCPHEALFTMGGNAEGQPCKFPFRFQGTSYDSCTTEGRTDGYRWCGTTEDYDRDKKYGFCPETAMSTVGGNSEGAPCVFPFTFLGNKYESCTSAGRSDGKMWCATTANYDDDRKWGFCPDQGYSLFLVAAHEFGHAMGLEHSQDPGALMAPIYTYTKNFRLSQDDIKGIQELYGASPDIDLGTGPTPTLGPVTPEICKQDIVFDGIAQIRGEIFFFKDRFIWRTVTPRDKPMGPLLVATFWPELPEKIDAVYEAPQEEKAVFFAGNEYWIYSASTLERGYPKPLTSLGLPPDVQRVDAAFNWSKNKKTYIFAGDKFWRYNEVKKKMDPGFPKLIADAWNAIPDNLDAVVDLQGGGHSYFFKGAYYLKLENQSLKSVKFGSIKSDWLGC
Test: Gelatinase (MMP-2) inhibitory activity, fluorogenic peptide substrate assay
Assay type: biochemical

[1] = substrate 5 μM, 60 min preincubation, 20-25° C., read-out: MMP2 IC50

Row | IC50 [nM] | Compound | IC50 [1] [nM]
1 | – | CC(C)CCN([C@H](CCc1ccccc1)C(=O)NO)S(=O)(=O)c1ccc2ccccc2c1 [Example 7, (R)—N-Hydroxy-2-[(3-methyl-butyl)-(naphthalene-2-sulfonyl)-amino]-4-phenyl-butyramide] | 458
2 | – | CC(C)[C@H](C(=O)NO)N(Cc1ccccc1)S(=O)(=O)c1ccc2ccccc2c1 [Example 10, 2-[Benzyl-(naphthalene-2-sulfonyl)-amino]-N-hydroxy-3-methyl-butyramide] | 706
3 | – | CC(C)[C@H](C(=O)NO)N(CCc1ccccc1)S(=O)(=O)c1ccc2ccccc2c1 [Example 13] | 200
4 | – | CC(C)CCN([C@@H](C(=O)NO)C(C)C)S(=O)(=O)c1ccc2ccccc2c1 [Example 22, N-Hydroxy-3-methyl-2-[(3-methyl-butyl)-(naphthalene-2-sulfonyl)-amino]-butyramide] | 384
5 | – | CC(C)CCN([C@@H](C(=O)NO)C(C)C)S(=O)(=O)c1ccc2cc(O)ccc2c1 [Example 31, N-Hydroxy-2-[(6-hydroxy-naphthalene-2-sulfonyl)-(3-methyl-butyl)-amino]-3-methyl-butyramide] | 178
6 | – | COc1ccc2cc(S(=O)(=O)N(CCC(C)C)[C@@H](C(=O)NO)C(C)C)ccc2c1 [Example 36, N-isoamyl-N-(6-methoxynaphthalene-2-sulfonyl)-D-valine hydroxamic acid] | 180
7 | – | CC(C)CCN([C@@H](C(=O)NO)C(C)C)S(=O)(=O)c1ccc2ccc(O)cc2c1 [Example 37, N-isoamyl-N-(6-hydroxynaphthalene-2-sulfonyl)-D-valine hydroxamic acid] | 3290
8 | – | COc1ccc2ccc(S(=O)(=O)N(CCC(C)C)[C@@H](C(=O)NO)C(C)C)cc2c1 [Example 40, (R)—N-Hydroxy-2-[(7-methoxy-naphthalene-2-sulfonyl)-(3-methyl-butyl)-amino]-3-methyl-butyramide] | 4370
9 | – | CCOc1ccc2cc(S(=O)(=O)N(CCC(C)C)[C@@H](C(=O)NO)C(C)C)ccc2c1 [Example 42, 2-[(6-Ethoxy-naphthalene-2-sulfonyl)-(3-methyl-butyl)-amino]-N-hydroxy-3-methyl-butyramide] | 307
10 | 25.5 | CC(C)[C@H](C(=O)NO)N(Cc1cccnc1)S(=O)(=O)c1ccc2ccccc2c1 [Example 45, N-Hydroxy-3-methyl-2-[(naphthalene-2-sulfonyl)-pyridin-3-ylmethyl-amino]-butyramide] | –
11 | – | CC(C)CCOc1ccc2cc(S(=O)(=O)N(CCC(C)C)[C@@H](C(=O)NO)C(C)C)ccc2c1 [Example 47, N-Hydroxy-3-methyl-2-[[6-(3-methyl-butoxy)-naphthalene-2-sulfonyl]-(3-methyl-butyl)-amino]-butyramide] | 931
12 | – | CC(C)CCN([C@@H](C(=O)NO)C(C)C)S(=O)(=O)c1ccc2cc(OCc3ccccc3)ccc2c1 [Example 53, 2-[(6-Benzyloxy-naphthalene-2-sulfonyl)-(3-methyl-butyl)-amino]-N-hydroxy-3-methyl-butyramide] | 1610
13 | – | CC(C)[C@H](C(=O)NO)N(Cc1ccccn1)S(=O)(=O)c1ccc2ccccc2c1 [Example 54, (R)—N-Hydroxy-3-methyl-2-[(naphthalene-2-sulfonyl)-pyridin-2-ylmethyl-amino]-butyramide] | 232
14 | – | CC(C)[C@H](C(=O)NO)N(CCN(C)C)S(=O)(=O)c1ccc2ccccc2c1 [Example 56, N-(2-Dimethylamino-ethyl)-N-(6-methoxynaphthalene-2-sulfonyl)-D-valine hydroxamic acid] | 607
15 | – | CC(C)CCN([C@@H](C(=O)NO)C(C)C)S(=O)(=O)c1ccc2ncccc2c1 [Example 67, (R)—N-Hydroxy-3-methyl-2-[(3-methyl-butyl)-(quinoline-6-sulfonyl)-amino]-butyramide] | 306
16 | – | CC(C)CCN([C@@H](C(=O)NO)C(C)(C)C)S(=O)(=O)c1ccc2ccccc2c1 [Example 69, (R)—N-Hydroxy-3,3-dimethyl-2-[(3-methyl-butyl)-(naphthalene-2-sulfonyl)-amino]-butyramide] | 3670
17 | – | CCCOc1ccc2cc(S(=O)(=O)N(CCC(C)C)[C@@H](C(=O)NO)C(C)C)ccc2c1 [Example 87, N-Hydroxy-3-methyl-2-[(3-methyl-butyl)-(6-propoxy-naphthalene-2-sulfonyl)-amino]-butyramide] | 197

Like-named read-outs stand apart in the source and are kept apart here.
